## Yeast mating assay 1: variants of the scFv Ab-14

From the AlphaSeq antibody data of Engelhart et al. 2022 (doi:10.1038/s41597-022-01779-4), copy in the FLAb collection.

All variants were tested on one target, the spike HR2 peptide PDVDLGDISGINAS (SARS-CoV-2).

Ab-14 is the parent antibody, in scFv form: VH, then a 15-residue (Gly4Ser)3 linker, then VL. The light chain is unchanged in all variants.
VH: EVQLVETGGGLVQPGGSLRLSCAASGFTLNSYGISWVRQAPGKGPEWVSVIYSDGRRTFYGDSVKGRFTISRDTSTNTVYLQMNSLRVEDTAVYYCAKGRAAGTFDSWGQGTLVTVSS
VL: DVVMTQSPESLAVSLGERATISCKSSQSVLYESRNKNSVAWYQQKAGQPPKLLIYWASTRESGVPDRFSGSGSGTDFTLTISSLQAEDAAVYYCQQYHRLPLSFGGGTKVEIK

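Phage display of a naive human antibody library on the peptide gave the parent. The library (AAYL49) carries one to three amino acid substitutions per variant, with no insertions or deletions. The scFvs were displayed on barcoded MATa yeast, the peptide on MATalpha yeast. The frequency of each diploid, read from paired DNA barcodes, reflects how well the two displayed proteins bind. Each replicate has its own calibration line, from reference interactions of the BCL2 family. Each pool was mated in three replicate cultures.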

Variants are written as CDR1, CDR2 and CDR3 of the heavy chain (limits as in the source). Parent: GFTLNSYGIS, VIYSDGRRTFYGDSVK, GRAAGTFDS.
All variants listed here change G61 of the VH, counted from its first residue.
Numbers give log10(Kd / nM), so 0 is 1 nM and 3 is 1 µM. Smaller is tighter.
Averages over replicates are reported, and they cover detected replicates only.
An entry "ND" has no value in the source: the pair was not observed among the diploids in that replicate. This suggests poor binding but is not conclusive.
In this assay the parent's reference entry averaged 0.65; its copy inside this library read 4.11 (one replicate of three).

The variant GHTLNSYGIS / VIYSDGRRTFYADSEK / GRAAGTFDS showed ND, ND, ND. For GFTLNSYGIS / VIYSDGRRTFNKRSVK / GRAAGTFDS, the assay gave ND, ND, ND. The variant GFTLNSSGID / VIYSDGRRTFYWDSVK / GRAAGTFDS showed ND, ND, ND. With GFTLNSYGIS / VIYSKGRRTFYPDSVK / GRAIGTFDS the result was ND, 3.53, ND. For GFTLNSYGIS / VIYGDGRRTFYNDSVK / GRAAGTFDF, the assay gave ND, ND, ND. For GFTLNSYGIS / VIHSDGRRTFYMDSVK / GRAAGNFDS, the assay gave ND, ND, ND. With GFTLNSYGIS / VIYSDGRCTFYEHSVK / GRAAGTFDS the result was ND, ND, 2.23. The variant MFMLNSYGIS / VIYSDGRRTFYYDSVK / GRAAGTFDS showed ND, ND, ND. With GFTLNSYGIS / VIYSDGRRTLCSDSVK / GRAAGTFDS the result was 3.03, 2.11, 2.45 (mean 2.53).

The variant GFTLNSYGIT / VIYSDGRRTFYIDSVK / GRGAGTFDS showed ND, ND, ND. The variant GFTLNSIGIS / VIYSDGRRTFYTDSVK / SRAAGTFDS gave ND, 2.82, ND. With GFTLNSYGIS / RIYSDGRLTFYHDSVK / GRAAGTFDS the result was 3.34, 3.99, ND (mean 3.67). The variant GFTLNSYGIS / IIYSDGRRTFYKDSVD / GRAAGTFDS showed ND, 1.72, ND. With GFTLLSYGIS / VIYSDGRRTFYSDSVK / GKAAGTFDS the result was 0.34, 0.80, 0.56 (mean 0.57). For GDTLNSYGIS / VIYSDGRRTFYHDSVW / GRAAGTFDS, the assay gave 1.70, 1.81, 1.64 (mean 1.72). For GFTLNSYGIS / VIYSDGRRTFYCDSVK / GRFAGTPDS, the assay gave ND, ND, ND. With CFTLNSYGIS / VIYSDGRRTFYVKSVK / GRAAGTFDS the result was ND, 3.68, ND. For GFTLNSYGIS / YIYSDGRRTFYCDSVK / GRAAGTFDS, the assay gave ND, ND, ND.

The variant HFTLNSYGIS / VIYSDGRRTFYQDWVK / GRAAGTFDS gave ND, 3.34, ND. The variant GFTLNSYGVS / VIYYDGRRTFYVDSVK / GRAAGTFDS showed 6.05, ND, ND. The variant GDTLNSYGIS / VIYSDGRRTFYRDSVK / GRAAGTDDS showed 2.39, 2.51, 2.17 (mean 2.36). The variant GFTLWSYGIS / VIYSDGRCTFYPDSVK / GRAAGTFDS gave ND, ND, ND. The variant GFTLNSYGIS / VIYSDGRTTFYKDSVK / GRAAGTFDS gave 1.75, 2.08, 2.07 (mean 1.97). The variant GFTLNSLGIS / VIYSDGRRTFYNDSVK / DRAAGTFDS gave 4.56, 5.32, 4.84 (mean 4.90). The variant GFTLNSYGIS / VMYSDGRRTFYYDSVK / GRAAGTQDS gave 3.27, ND, ND. The variant GFTLNSYGIS / VIYSDGRRTFYYDSVK / GRSAGTFDS showed ND, ND, ND. The variant GFTLNSYGIT / VIYSHGRRTFYQDSVK / GRAAGTFDS showed ND, ND, ND.

For GFTLNSYGQS / VIPSDGRRTFYWDSVK / GRAAGTFDS, the assay gave ND, ND, ND. With GFTLNSYTIS / VIYSDGRPTFYYDSVK / GRAAGTFDS the result was ND, 3.93, ND. With AFTLNSYGIS / VIYSDGRFTFYLDSVK / GRAAGTFDS the result was ND, ND, ND. With GFTLNSYGIS / VIYSDGRRTFYFLSVF / GRAAGTFDS the result was ND, ND, 4.63. With GFTLNSFGIS / VIYSSGRRTFYMDSVK / GRAAGTFDS the result was ND, ND, ND. The variant GFTLNSYGIS / VIYSDGRRTFYCDSVK / FPAAGTFDS gave 1.51, 1.95, 1.66 (mean 1.71). The variant GFTLNSYGIS / VIYSDGRRTTYADSVK / GRAAETFDS showed 0.70, 0.88, 0.89 (mean 0.82). The variant GFTLNSYGIS / VIPSDGIRTFYLDSVK / GRAAGTFDS gave ND, 3.74, ND. For TFTLNSYGIS / VIYSDGRRTFYPDSVK / GRTAGTFDS, the assay gave ND, ND, ND.

The variant GFKLNSYGIS / RIYSDGRRTFYVDSVK / GRAAGTFDS gave ND, ND, ND. The variant GFTLNSYGIS / VIYSDGRRTFYFDSVK / GRDAGTFDS gave 2.83, 3.02, 3.91 (mean 3.25). With GFYLNSYGIS / VIYWDGRRTFYADSVK / GRAAGTFDS the result was 3.29, 3.69, ND (mean 3.49). For GFTLNSYGIY / VIYSDGRRTFTDDSVK / GRAAGTFDS, the assay gave ND, ND, 4.31. The variant GFTLNSYGIS / VIYSDGRRTCYRDCVK / GRAAGTFDS showed ND, ND, 4.81. For GFTLNSYGIF / VIYSDGRRTFYLDSVK / GRAAGTFIS, the assay gave ND, ND, ND. The variant GFTLNLYGIS / VIYSDGRRTFYRDSVK / GRAAGTFDV showed ND, ND, ND. The variant GFTLNSYGIS / VIYSDGRRTFNCDSVK / GRAATTFDS showed ND, ND, ND. For GFTLNSYGIS / VIYSDGRRTFYKESVK / IRAAGTFDS, the assay gave ND, ND, ND.

The variant GFTLNAYGIS / VIYSDGRRTFYLDSVK / GRAAGTFDS showed 3.95, 3.39, 4.98 (mean 4.11). The variant GFTLNSPGIS / VIYSDGRRTFYRDTVK / GRAAGTFDS showed ND, 4.37, ND. With GFTLNSYGIS / VIYSDGRRTFYKLSVK / GIAAGTFDS the result was ND, ND, ND. The variant GFTLNNYGIS / VIYSDGRRTFYWDSVK / GRAALTFDS showed ND, 3.28, ND. With GFTLNSYGIS / VIYSDGRRTQYIDSVK / GRAAGTKDS the result was ND, ND, 4.44.

The 6 strongest on average among those seen in every replicate, once more:

For GFTLLSYGIS / VIYSDGRRTFYSDSVK / GKAAGTFDS, the assay gave 0.34, 0.80, 0.56 (mean 0.57).
For GFTLNSYGIS / VIYSDGRRTTYADSVK / GRAAETFDS, the assay gave 0.70, 0.88, 0.89 (mean 0.82).
For GFTLNSYGIS / VIYSDGRRTFYCDSVK / FPAAGTFDS, the assay gave 1.51, 1.95, 1.66 (mean 1.71).
For GDTLNSYGIS / VIYSDGRRTFYHDSVW / GRAAGTFDS, the assay gave 1.70, 1.81, 1.64 (mean 1.72).
For GFTLNSYGIS / VIYSDGRTTFYKDSVK / GRAAGTFDS, the assay gave 1.75, 2.08, 2.07 (mean 1.97).
For GDTLNSYGIS / VIYSDGRRTFYRDSVK / GRAAGTDDS, the assay gave 2.39, 2.51, 2.17 (mean 2.36).

Nonspecific signal, from three strains lacking the peptide, appeared in 15% of pairings of library AAYL49, centred on 4.06 (5% of these signals below 2.83); values are not corrected for it.